Assays:
[1] = tested on: rats with unilateral hind paw inflammation; experiment: Side effects and toxicity after intravenous injection; settings: i.v. 20 mg/kg
[2] = tested on: rats with unilateral hind paw inflammation; experiment: Paw pressure threshold (PPT) after intravenous injection, CFA hind paw inflammation
[3] = tested on: rats with unilateral hind paw inflammation; experiment: Paw pressure threshold (PPT) after intraplantar injection into the inflamed paw, CFA hind paw inflammation; settings: i.pl. into inflamed paw, up to 200 μg (as free base), 5-15 min after injection, 4 days after CFA

## CN(C(=O)Cc1ccc(Cl)c(Cl)c1)[C@@H]1CCCC[C@H]1N1CCCC1
[1]
  Doubling of the dose to 20 mg/kg (tolerability): not possible for toxicological reasons
[2]; i.v.
  Site of opioid receptor action (summary of analgesic efficacy): ubiquitously activates both peripheral and central opioid receptors
[2]; i.v. 10 mg/kg
  PPT reached (upper limit) in both paws: about 160 g
[2]; i.v., up to 10 mg/kg (as free base), from 10 minutes onward
  Analgesic effect (PPT) in inflamed and non-inflamed paws: dose-dependent analgesic effect in both the inflamed and non-inflamed paws
[3]
  PPT change (analgesia) in inflamed paws: Dose-dependent PPT increase (analgesia)

Source: patent US11253599B2, “Analgesic preparation with nanocarriers and use thereof” (dated 2022)
